Consider three molecules from ChEMBL document CHEMBL1148435, “N,N-dialkyl-4-[(8-azabicyclo[3.2.1]-oct-3-ylidene)phenylmethyl]benzamides, potent, selective delta opioid agonists” (Bioorg Med Chem Lett, 2004).

By UniProt entry, the sequences of proteins in these tests, tags left out.
UniProt P41143, whole entry: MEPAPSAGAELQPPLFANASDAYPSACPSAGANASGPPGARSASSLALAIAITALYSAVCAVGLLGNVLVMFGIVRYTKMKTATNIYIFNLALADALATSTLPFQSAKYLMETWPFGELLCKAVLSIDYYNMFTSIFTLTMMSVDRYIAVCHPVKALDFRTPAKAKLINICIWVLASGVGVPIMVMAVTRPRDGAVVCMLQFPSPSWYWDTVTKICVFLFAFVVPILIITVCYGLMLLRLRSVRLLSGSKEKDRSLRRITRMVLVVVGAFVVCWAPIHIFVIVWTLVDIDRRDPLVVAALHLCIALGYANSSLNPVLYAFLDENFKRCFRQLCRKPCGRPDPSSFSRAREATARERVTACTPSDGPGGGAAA
UniProt P35372, whole entry: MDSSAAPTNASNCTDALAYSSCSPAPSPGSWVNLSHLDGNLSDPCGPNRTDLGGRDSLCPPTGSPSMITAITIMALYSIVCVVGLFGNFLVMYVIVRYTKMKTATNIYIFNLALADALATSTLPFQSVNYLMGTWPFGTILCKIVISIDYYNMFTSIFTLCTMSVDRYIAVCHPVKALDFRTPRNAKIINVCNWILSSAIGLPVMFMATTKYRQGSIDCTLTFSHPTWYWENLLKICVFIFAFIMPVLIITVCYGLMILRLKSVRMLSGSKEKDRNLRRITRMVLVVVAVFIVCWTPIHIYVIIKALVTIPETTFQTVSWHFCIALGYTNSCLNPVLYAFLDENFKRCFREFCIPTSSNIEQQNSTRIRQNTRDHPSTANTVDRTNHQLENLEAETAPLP

Experiment [1] addresses T1, Delta-type opioid receptor (Homo sapiens, UniProt P41143). In words: Effective concentration against stimulation of [35S]GTP-gamma-S, binding in CHO cells transfected with the human opioid receptor delta 1.
Experiment [2] concerns the target T1, Delta-type opioid receptor. In words: Binding affinity for delta opioid receptor.
The target of a further experiment is Mu-type opioid receptor (Homo sapiens, UniProt P35372). Briefly: Binding affinity for mu opioid receptor.

Molecules are shown by their SMILES.

`CCN(CC)C(=O)c1ccc(N(c2ccccc2)C2C[C@H]3CC[C@@H](C2)N3)cc1` (some centres undefined) gave an EC50 in experiment [1] of 12 nM. Moreover, the figures for the inhibitory constant (Ki) (in experiment [2]; on Mu-type opioid receptor) were 0.3 nM and 5.04 µM, respectively.

With `C=CCN1CCC(N(c2ccccc2)c2ccc(C(=O)N(CC)CC)cc2)CC1`, the EC50 in experiment [1] came out at 21 nM. Further, the Ki in experiment [2] stood at 24 nM; on Mu-type opioid receptor, 11.6 µM.

Consider `C=CCN1[C@@H]2CC[C@H]1CC(N(c1ccccc1)c1ccc(C(=O)N(CC)CC)cc1)C2` (some centres undefined), for which, in experiment [1], the concentration giving a half-maximal response (EC50) was 12 nM. The inhibition constant Ki in experiment [2] was 0.5 nM; at Mu-type opioid receptor, 3.65 µM.

For orientation: EC50 means the concentration at which the effect is half-maximal. The low end stands for an effect from little substance, the high end for a need for much substance. By Ki is commonly meant a measure of affinity in units of concentration, obtained from inhibition or displacement. Low readings indicate higher affinity, high ones lower affinity.
